Laboratory results published in paper PMC8691691 (ACS Chemical Neuroscience, 2021).
Substitutions are numbered along the chain they refer to.

Tests used:
GlyT2 S640C mutant = molecular target: T1, GlyT2 S640C mutant (Rattus norvegicus, UniProt P58295, S640C); assay: [3H]glycine transport by GlyT2 mutant in COS7 cells; type: cell-based
T1 construct: expressed in transfected cells; host or cells: COS7
T1 sequence (P58295 1-799 S640C): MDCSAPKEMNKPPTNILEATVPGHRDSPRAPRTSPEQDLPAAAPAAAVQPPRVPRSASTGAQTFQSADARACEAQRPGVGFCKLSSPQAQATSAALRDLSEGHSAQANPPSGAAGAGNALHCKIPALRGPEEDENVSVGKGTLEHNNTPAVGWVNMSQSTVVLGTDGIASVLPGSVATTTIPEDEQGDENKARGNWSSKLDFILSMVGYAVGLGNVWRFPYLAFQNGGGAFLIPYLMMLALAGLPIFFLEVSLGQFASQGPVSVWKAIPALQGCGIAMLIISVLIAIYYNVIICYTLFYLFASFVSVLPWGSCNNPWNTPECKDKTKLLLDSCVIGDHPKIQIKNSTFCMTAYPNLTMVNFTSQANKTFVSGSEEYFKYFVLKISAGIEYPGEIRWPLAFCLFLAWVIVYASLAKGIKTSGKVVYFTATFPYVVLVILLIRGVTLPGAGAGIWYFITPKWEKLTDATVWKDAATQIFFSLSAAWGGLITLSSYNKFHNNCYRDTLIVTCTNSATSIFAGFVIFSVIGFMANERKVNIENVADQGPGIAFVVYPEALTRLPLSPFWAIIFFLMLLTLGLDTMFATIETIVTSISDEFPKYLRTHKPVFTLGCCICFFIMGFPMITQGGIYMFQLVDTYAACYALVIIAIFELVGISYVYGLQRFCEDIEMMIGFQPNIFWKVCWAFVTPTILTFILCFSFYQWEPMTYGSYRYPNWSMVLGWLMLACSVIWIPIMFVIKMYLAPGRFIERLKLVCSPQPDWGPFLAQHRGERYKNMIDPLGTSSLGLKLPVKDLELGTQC
From the text: (§1) To validate the predicted interactions between the inhibitors and GlyT2, we used systematic site-directed mutagenesis to construct substitution mutants of the potential residues involved in ligand binding. […] The GlyT2 residues predicted to interact with the inhibitors through its side chain were replaced by amino acids expected to force the loss of the interaction. In the cases where the interaction occurred through the backbone, the inserted amino acid sought to alter the disposition of the substituted residue to lose the coordination. […] Most of the mutants were active, although depicted lower activity as compared to the wild-type. […] These two residues are preserved throughout the NSS family, and Tyr-289 has proven to have an important structural role in stabilizing the unwound portion of the TM1 helix, whereas Tyr-209 has a key role in S1 site formation through its interaction with Ser-481.[25],[30],[33] Other residues such as Leu-213 or Ser-479 are involved in the formation of the glycine-binding site and Na^+-binding site, respectively.
(§2) Substitution mutants were generated with the QuikChange II Site-Directed Mutagenesis kit (Agilent Technologies, Santa Clara, CA, USA), using rGlyT2 or rGlyT1 subcloned in pCDNA3.[47] The complete coding region of all of the constructs was sequenced to verify that only the desired mutation had been introduced. Plasmids from two independent Escherichia coli colonies were expressed in eukaryotic cells as indicated below, and [^3H]glycine transport and/or immunodetection was performed for verification. COS7 cells were grown and transfected using Turbofect Transfection Reagent (Thermo Fisher Scientific, Waltham, MA, USA), following the manufacturer’s protocol (2 μL reagent/μg of DNA). Cells were incubated for 48 h at 37 °C until used.
(§3) COS7 cells were washed and incubated at 37 °C in HEPES-buffered saline (HBS, in mM: 150 NaCl, 10 HEPES-Tris, pH 7.4, 1 CaCl2, 5 KCl, 1 MgSO4, 10 glucose) containing 2 μCi/mL [2-^3H]glycine (1.6 TBq/mmol; PerkinElmer Life Sciences), at 10 μM final glycine concentration if not otherwise stated.[48] At the end of the desired time (usually 10 min), reactions were washed and terminated by aspiration. Protein concentration (Bradford) and [2-^3H]glycine levels (liquid scintillation, LKB 1219 Rackbeta) were determined. Glycine accumulation measured in mock-transfected cells was subtracted from that of the transporter-transfected cells and normalized by the protein concentration. Kinetic analyses were performed by varying glycine concentration in the uptake medium between 0.5 and 500 μM. […] The determinations of the IC50 were performed initially by diluting compounds by log steps with the vehicle from 1 nM to 1 μM. Then, exact IC50 values were determined by means of 8-point concentration curves performed over a suitable range using half log dilutions with the vehicle. A nonlinear curve fitting method was used to obtain IC50 values using Graphpad Prism software, version 6.0, Graphpad, San Diego, CA, USA.

GlyT2 W484F mutant = molecular target: T2, GlyT2 W484F mutant (Rattus norvegicus, UniProt P58295, W484F); assay: as above; type: cell-based
T2 construct: expressed in transfected cells; host or cells: COS7
T2 sequence (P58295 1-799 W484F): T1 sequence (P58295 1-799 S640C) with W484F, C640S
From the text: as §1, §2, §3

`NCC(=O)O` [Gly, glycine] gave an EC50 (GlyT2 S640C mutant) of 111 ± 2 µM and an EC50 (GlyT2 W484F mutant) of 910 ± 83 µM.
